PMC10265101 (2023)

Target: recombinant HLA-G (TP305216, OriGene) (human, UniProt P17693 25-308)
Assay: ELISA

Binder	IC50
HLA-G Nb#2 (VHH) VHH: HVQLVESGGGSVQAGGSLKLSCVTSAYTFSASGNCMGWLRQAPGKGREGIAATYTRSAKTYYADSVKGRFTISQDNAKNTVYLQMNGLKPEDTATYYCAVARCAGRPDRSTLTSFAWWGQGTQVTVSS	~45.7 nM
HLA-G Nb#1 (VHH) VHH: EVQLVESGGGSVQAGGSLRLSCDASKYTYFRNCMGWFRQVPGAEREGVATIDSAGGTSYADFVKGRFTISRDNAKTALYLQMNSLKPEDTAMYYCFGGSWYKGSCIYEYNYWGQGTQVTVSS	~75.2 nM
